The assay has as its system Primary CLL cells. The experiment in a line: 3 day co-treatment of primary CLL cells with alkylating agents and R(−)-etodolac, MTT viability. The conditions noted are these: read-out: IC50, 3 Day Co-Treatment, alkylating agent alone.

Structures are written as SMILES. Read-outs that look alike come from different tables or passages of the source.

The term IC50 denotes the concentration at which inhibition is half-maximal. `NP(=O)(O)N(CCCl)CCCl`: the IC50 came out at 5500 nM (CLL sample EGF); 1900 nM (CLL sample GF); 800 nM (CLL sample MAR); 600 nM (CLL sample MAS); 1300 nM (CLL sample MS).
